Structures are written as SMILES.

Sequences of proteins named here, by UniProt entry; tags and fusion partners are left off.
UniProt P04049, whole entry Y340E/Y341E: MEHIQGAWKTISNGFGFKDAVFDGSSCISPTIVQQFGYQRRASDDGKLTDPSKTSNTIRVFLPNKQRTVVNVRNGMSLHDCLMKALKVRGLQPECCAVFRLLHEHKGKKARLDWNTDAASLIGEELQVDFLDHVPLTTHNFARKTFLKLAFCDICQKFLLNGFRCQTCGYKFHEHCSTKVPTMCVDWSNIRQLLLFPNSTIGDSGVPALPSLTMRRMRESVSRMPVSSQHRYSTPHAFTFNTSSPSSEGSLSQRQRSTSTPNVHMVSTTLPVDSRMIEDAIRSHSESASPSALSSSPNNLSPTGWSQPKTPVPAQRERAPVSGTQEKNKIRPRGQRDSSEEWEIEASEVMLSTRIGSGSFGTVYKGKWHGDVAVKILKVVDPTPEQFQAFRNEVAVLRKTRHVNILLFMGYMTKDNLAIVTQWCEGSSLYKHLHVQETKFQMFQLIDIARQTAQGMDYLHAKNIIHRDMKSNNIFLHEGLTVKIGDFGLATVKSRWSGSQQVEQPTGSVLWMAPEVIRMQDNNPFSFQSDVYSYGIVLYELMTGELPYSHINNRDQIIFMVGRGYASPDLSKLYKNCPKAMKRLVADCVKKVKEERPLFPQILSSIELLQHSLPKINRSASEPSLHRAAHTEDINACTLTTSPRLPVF

The first experiment deals with C-Raf FL (full-length C-Raf protein, Y340E and Y341E activating mutations) (Homo sapiens (Human), UniProt P04049, Y340E/Y341E). The class given is biochemical. Particulars: AlphaScreen, 60 min pre-incubation, 1 hour reaction; read-out: c-Raf FL IC-50. Background: In Alpha technology, singlet oxygen from a donor bead excites a nearby acceptor bead.
As for `Cc1ccc(NC(=O)c2ccnc(C(C)(C)F)c2)cc1-c1cc(N2CCOCC2)c(OCCO)nn1` [Example 588, 2-(2-fluoropropan-2-yl)-N-(3-(6-(2-hydroxyethoxy)-5-morpholinopyridazin-3-yl)-4-methylphenyl)isonicotinamide], the IC50 was determined as 0.7 nM. On the same count and under the same terms, as for `Cc1ccc(NC(=O)c2ccnc(C(C)C)c2)cc1-c1cc(N2CCOCC2)n(C)c(=O)c1` [Example 482, 2-isopropyl-N-(4-methyl-3-(1-methyl-6-morpholino-2-oxo-1,2-dihydropyridin-4-yl)phenyl)isonicotinamide], the figure is 0.2 nM; as for `Cc1ncc(NC(=O)c2ccnc(C(C)(C)C#N)c2)cc1-c1cc(N2CCOCC2)nc(NC2(CO)CCOCC2)n1` [Example 753, 2-(2-cyanopropan-2-yl)-N-(5-(2-((4-(hydroxymethyl)tetrahydro-2H-pyran-4-yl)amino)-6-morpholinopyrimidin-4-yl)-6-methylpyridin-3-yl)isonicotinamide], 6.7 nM; as for `CCNc1nc(-c2cc(NC(=O)c3ccnc(C(C)(C)C#N)c3)ccc2C)cc(N2CCOC[C@@H]2C)n1` [Example 714, (S)-2-(2-cyanopropan-2-yl)-N-(3-(2-(ethylamino)-6-(3-methylmorpholino)pyrimidin-4-yl)-4-methylphenyl)isonicotinamide], 0.9 nM. On to `Cc1ccc(NC(=O)c2ccnc(C(C)(F)F)c2)cc1-c1cc(N2CCOCC2)nc(N(C)C)n1` [Example 756, 2-(1,1-difluoroethyl)-N-(3-(2-(dimethylamino)-6-morpholinopyrimidin-4-yl)-4-methylphenyl)isonicotinamide], for which the IC50 came out at 1.5 nM. On the same count and under the same terms, as for `Cc1ccc(NC(=O)c2cccc(C(F)(F)F)c2)cc1-c1nc(N2CCOCC2)c2[nH]ccc2n1` [Example 830, N-(4-methyl-3-(4-morpholino-5H-pyrrolo[3,2-d]pyrimidin-2-yl)phenyl)-3-(trifluoromethyl)benzamide], the figure is 0.1 nM; as for `Cc1ccc(NC(=O)c2cccc(C(F)F)c2)cc1-c1cc(N2CCOCC2)c(=O)n(C)n1` [Example 655, 3-(difluoromethyl)-N-(4-methyl-3-(1-methyl-5-morpholino-6-oxo-1,6-dihydropyridazin-3-yl)phenyl)benzamide], 0.3 nM. The same measure, in the same setting: as for `Cc1ccc(NC(=O)c2ccnc(C(C)(C)C#N)c2)cc1-c1cc(N2CCOCC2)n(C)c(=O)c1` [Example 487, 2-(2-cyanopropan-2-yl)-N-(4-methyl-3-(1-methyl-6-morpholino-2-oxo-1,2-dihydropyridin-4-yl)phenyl)isonicotinamide], the figure is 0.8 nM. Still for that read-out and setting: as for `Cc1ncc(NC(=O)c2cc(C(F)(F)F)ccn2)cc1-c1cc(N2CCOCC2)c(OC2CCOCC2)nn1` [Example 629, N-(6-methyl-5-(5-morpholino-6-((tetrahydro-2H-pyran-4-yl)oxy)pyridazin-3-yl)pyridin-3-yl)-4-(trifluoromethyl)picolinamide], the figure is 0.4 nM; as for `Cc1ccc(NC(=O)c2cccc(C(C)(C)S(C)(=O)=O)c2)cc1-c1cc(N2CCOCC2)c(=O)n(C)n1` [Example 637, N-(4-methyl-3-(1-methyl-5-morpholino-6-oxo-1,6-dihydropyridazin-3-yl)phenyl)-3-(2-(methylsulfonyl)propan-2-yl)benzamide], 5.5 nM.

Staying with this experiment, now noted: AlphaScreen, 60 min pre-incubation, reaction 1 hour at room temperature; read-out: c-Raf FL IC-50.
Regarding `CCC(F)(F)c1cc(C(=O)Nc2ccc(C)c(-c3cc(N4CCOCC4)c(S(C)(=O)=O)nn3)c2)ccn1` [Example 926, 2-(1,1-difluoropropyl)-N-(4-methyl-3-(6-(methylsulfonyl)-5-morpholinopyridazin-3-yl)phenyl)isonicotinamide], the IC50 was found to be 0.47 nM.

In the case of `Cc1ccc(NC(=O)c2cncc(C(F)(F)F)c2)cc1-c1cc(N2CCOCC2)n(C)c(=O)c1` [Example 901, N-(4-methyl-3-(1-methyl-6-morpholino-2-oxo-1,2-dihydropyridin-4-yl)phenyl)-5-(trifluoromethyl)nicotinamide], the IC50 is 0.21 nM. On the same count and under the same terms, as for `Cc1ncc(NC(=O)c2ccnc(C(C)(C)C#N)c2)cc1-c1cc(N2CCOCC2)nc(N2CC(C)(O)C2)c1` [Example 1108, 2-(2-cyanopropan-2-yl)-N-(2′-(3-hydroxy-3-methylazetidin-1-yl)-2-methyl-6′-morpholino-[3,4′-bipyridin]-5-yl)isonicotinamide], the figure is 2.78 nM.

In the case of `Cc1ncc(NC(=O)c2ccnc(C(C)(C)C#N)c2)cc1-c1cc(N2CCOCC2)nc(N2CC(O)C2)c1` [Example 1083, 2-(2-cyanopropan-2-yl)-N-(2′-(3-hydroxyazetidin-1-yl)-2-methyl-6′-morpholino-[3,4′-bipyridin]-5-yl)isonicotinamide], the IC50 turned out to be 5.4 nM.

For `Cc1ncc(NC(=O)c2ccnc(C(F)F)c2)cc1-c1cc(NCCO)nc(N2CCOC[C@H]2C)c1` [Example 1141, (R)-2-(difluoromethyl)-N-(2′-((2-hydroxyethyl)amino)-2-methyl-6′-(3-methylmorpholino)-[3,4′-bipyridin]-5-yl)isonicotinamide], the IC50 is 3.71 nM. With `CCOc1ccc(-c2cc(NC(=O)c3ccnc(C(C)(C)F)c3)cnc2C)nc1N1CCOCC1` [Example 1027, N-(5-ethoxy-2′-methyl-6-morpholino-[2,3′-bipyridin]-5′-yl)-2-(2-fluoropropan-2-yl)isonicotinamide], the IC50 is 1.79 nM.

With `Cc1ncc(NC(=O)c2ccnc(C(C)(C)C#N)c2)cc1-c1cnc(OC2CC3(COC3)C2)c(N2CCOCC2)c1` [Example 967, N-(6′-(2-oxaspiro[3.3]heptan-6-yloxy)-2-methyl-5′-morpholino-[3,3′-bipyridin]-5-yl)-2-(2-cyanopropan-2-yl)isonicotinamide], the IC50 was 2.15 nM. `Cc1ccc(NC(=O)c2ccnc(C(F)(F)F)c2)cc1-c1cc(N2CCNCC2)nc(N2CCOCC2)c1` [Example 1128, N-(4-methyl-3-(2-morpholino-6-(piperazin-1-yl)pyridin-4-yl)phenyl)-2-(trifluoromethyl)isonicotinamide]: the IC50 came out at 0.74 nM.

Consider `CNC(=O)c1ncc(-c2cc(NC(=O)c3ccnc(C(C)(F)F)c3)ccc2C)cc1N1CCOCC1` [Example 987, 5-(5-(2-(1,1-difluoroethyl)isonicotinamido)-2-methylphenyl)-N-methyl-3-morpholinopicolinamide], for which the IC50 was 0.8 nM.

`Cc1ccc(NC(=O)c2cnnc(C(F)(F)F)c2)cc1-c1cc(NCCO)nc(N2CCOCC2)c1F` [Example 1013, N-(3-(3-fluoro-6-((2-hydroxyethyl)amino)-2-morpholinopyridin-4-yl)-4-methylphenyl)-6-(trifluoromethyl)pyridazine-4-carboxamide]: the IC50 amounted to 1.99 nM.

The same experiment, now with this note: Table 2; AlphaScreen, 1 hour reaction; read-out: c-Raf FL IC-50.
For the molecule `Cc1ncc(NC(=O)c2cc(C(C)C)on2)cc1-c1cc(N2CCOCC2)c(=O)n(C)c1` [Example 379, N-(1′,2-dimethyl-5′-morpholino-6′-oxo-1′,6′-dihydro-[3,3′-bipyridin]-5-yl)-5-isopropylisoxazole-3-carboxamide], the IC50 is 1.4 nM. Same read-out and setting: as for `Cc1ncc(NC(=O)c2cccc(C(F)(F)F)c2)cc1-c1cnc(N(C)C)c(N2CCOCC2)c1` [Example 307, N-(6′-(dimethylamino)-2-methyl-5′-morpholino-[3,3′-bipyridin]-5-yl)-3-(trifluoromethyl)benzamide], the figure is 0.1 nM; as for `Cc1ccc(NC(=O)c2cc(C3CC3)on2)cc1-c1cc(N2CCOCC2)c(=O)n(C)c1` [Example 372, 5-cyclopropyl-N-(4-methyl-3-(1-methyl-5-morpholino-6-oxo-1,6-dihydropyridin-3-yl)phenyl)isoxazole-3-carboxamide], 0.2 nM. The same measure, in the same setting: as for `COc1ccc(C(=O)Nc2ccc(C)c(-c3cc(N4CCOCC4)c(=O)n(C)c3)c2)cc1C(F)(F)F` [Example 339, 4-methoxy-N-(4-methyl-3-(1-methyl-5-morpholino-6-oxo-1,6-dihydropyridin-3-yl)phenyl)-3-(trifluoromethyl)benzamide], the figure is 0.7 nM; as for `Cc1ccc(NC(=O)c2cccc(C(F)(F)F)c2)cc1-c1cnc(O[C@@H](C)C#N)c(N2CCOCC2)c1` [Example 152, (S)—N-(3-(6-(1-cyanoethoxy)-5-morpholinopyridin-3-yl)-4-methylphenyl)-3-(trifluoromethyl)benzamide], 0.5 nM. On the same count and under the same terms, as for `Cc1ncc(NC(=O)c2cccc(C(F)F)c2)cc1-c1cc(N2CCOCC2)c(=O)n(C)c1` [Example 394, 3-(difluoromethyl)-N-(1′,2-dimethyl-5′-morpholino-6′-oxo-1′,6′-dihydro-[3,3′-bipyridin]-5-yl)benzamide], the figure is 1 nM; as for `Cn1cc(-c2cc(C(=O)Nc3cccc(C(F)F)c3)ccc2Cl)cc(N2CCOCC2)c1=O` [Example 426, 4-chloro-N-(3-(difluoromethyl)phenyl)-3-(1-methyl-5-morpholino-6-oxo-1,6-dihydropyridin-3-yl)benzamide], 0.7 nM. As to `Cc1ccc(NC(=O)c2cccc(C(F)(F)F)c2)cc1-c1cc(N2CCOCC2)n(C)c(=O)c1` [Example 162, N-(4-methyl-3-(1-methyl-6-morpholino-2-oxo-1,2-dihydropyridin-4-yl)phenyl)-3-(trifluoromethyl)benzamide], the IC50 was found to be 0.2 nM. Still for that read-out and setting: as for `Cc1ccc(C(=O)Nc2cccc(C(F)F)c2)cc1-c1cc(N2CCOCC2)c(=O)n(C)c1` [Example 430, N-(3-(difluoromethyl)phenyl)-4-methyl-3-(1-methyl-5-morpholino-6-oxo-1,6-dihydropyridin-3-yl)benzamide], the figure is 0.6 nM; as for `Cc1ccc(NC(=O)c2cn(C)nc2C)cc1-c1cc(N2CCOCC2)c(=O)n(C)c1` [Example 366, 1,3-dimethyl-N-(4-methyl-3-(1-methyl-5-morpholino-6-oxo-1,6-dihydropyridin-3-yl)phenyl)-1H-pyrazole-4-carboxamide], 16.7 nM; as for `O=C(Nc1cccc(C(F)(F)F)c1)c1ccc(CF)c(-c2ccnc(N3CCOCC3)c2)c1` [Example 110, 4-(fluoromethyl)-3-(2-morpholinopyridin-4-yl)-N-(3-(trifluoromethyl)phenyl)benzamide], 0.3 nM.

Source of the values: patent publication US9694016B2 (Novartis AG, priority 2013, dated 2017).
